Test results from patent publication US20160192658A1 (priority 2013, published 2016).

## Hydrogen
MDCK cells
  cytotoxicity to the MDCK cells: not found to have any cytotoxicity
HEp-2 cells
  toxicity to HEp-2 cells: not confirmed to have any marked toxicity
